Key:
[1] = molecular target: BRG-1 (Homo sapiens, UniProt P51532); assay: ATPase catalytic activity assay (ADP-Glo), BRG-1
[2] = molecular target: BRM (Homo sapiens, UniProt P51531); assay: ATPase catalytic activity assay (ADP-Glo), BRM

Amino acid sequences for entries named in this document (tags omitted).
UniProt P51532, whole entry: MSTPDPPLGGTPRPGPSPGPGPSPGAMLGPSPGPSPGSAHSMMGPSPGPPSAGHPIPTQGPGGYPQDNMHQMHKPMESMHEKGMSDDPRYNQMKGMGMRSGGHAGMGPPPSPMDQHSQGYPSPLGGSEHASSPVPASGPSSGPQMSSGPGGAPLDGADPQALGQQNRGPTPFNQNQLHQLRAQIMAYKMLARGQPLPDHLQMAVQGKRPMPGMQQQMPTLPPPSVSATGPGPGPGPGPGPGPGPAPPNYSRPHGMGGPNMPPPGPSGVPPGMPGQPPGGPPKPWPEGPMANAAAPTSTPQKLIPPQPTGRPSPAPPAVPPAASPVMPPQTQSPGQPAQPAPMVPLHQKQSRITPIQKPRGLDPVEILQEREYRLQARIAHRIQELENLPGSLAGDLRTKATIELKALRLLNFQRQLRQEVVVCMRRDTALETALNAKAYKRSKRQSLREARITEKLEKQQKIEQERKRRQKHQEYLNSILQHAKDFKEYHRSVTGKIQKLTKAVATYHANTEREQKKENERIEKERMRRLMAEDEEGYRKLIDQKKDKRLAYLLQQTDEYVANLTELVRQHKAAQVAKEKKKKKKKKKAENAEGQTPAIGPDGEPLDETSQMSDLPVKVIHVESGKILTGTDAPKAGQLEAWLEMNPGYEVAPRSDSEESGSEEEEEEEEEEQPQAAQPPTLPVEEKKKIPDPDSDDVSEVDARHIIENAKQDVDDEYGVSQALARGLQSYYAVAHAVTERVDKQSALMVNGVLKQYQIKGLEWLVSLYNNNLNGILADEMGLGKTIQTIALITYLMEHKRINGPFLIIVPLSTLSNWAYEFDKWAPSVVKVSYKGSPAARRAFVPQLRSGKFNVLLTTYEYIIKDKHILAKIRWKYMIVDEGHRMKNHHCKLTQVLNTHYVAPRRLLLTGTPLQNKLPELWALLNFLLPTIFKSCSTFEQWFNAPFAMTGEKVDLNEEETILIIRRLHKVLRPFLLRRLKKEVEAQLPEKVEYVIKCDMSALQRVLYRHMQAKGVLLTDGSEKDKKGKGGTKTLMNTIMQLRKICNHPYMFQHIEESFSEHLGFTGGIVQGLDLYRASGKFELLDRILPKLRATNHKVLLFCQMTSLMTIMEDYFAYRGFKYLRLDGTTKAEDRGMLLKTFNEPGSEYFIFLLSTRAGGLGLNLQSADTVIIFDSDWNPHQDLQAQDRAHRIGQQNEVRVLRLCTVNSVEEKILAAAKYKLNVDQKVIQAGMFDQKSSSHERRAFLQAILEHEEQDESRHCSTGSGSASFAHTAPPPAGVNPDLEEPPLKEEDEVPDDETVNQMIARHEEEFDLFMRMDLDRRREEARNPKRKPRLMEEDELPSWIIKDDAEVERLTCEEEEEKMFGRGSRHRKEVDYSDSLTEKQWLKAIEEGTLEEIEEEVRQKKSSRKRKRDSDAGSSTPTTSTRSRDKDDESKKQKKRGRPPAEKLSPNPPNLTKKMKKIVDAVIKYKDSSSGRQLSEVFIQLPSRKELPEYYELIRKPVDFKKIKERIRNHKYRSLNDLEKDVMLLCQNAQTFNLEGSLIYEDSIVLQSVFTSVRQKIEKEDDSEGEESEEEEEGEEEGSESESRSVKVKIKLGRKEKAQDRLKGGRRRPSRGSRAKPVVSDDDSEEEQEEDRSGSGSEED
UniProt P51531, whole entry: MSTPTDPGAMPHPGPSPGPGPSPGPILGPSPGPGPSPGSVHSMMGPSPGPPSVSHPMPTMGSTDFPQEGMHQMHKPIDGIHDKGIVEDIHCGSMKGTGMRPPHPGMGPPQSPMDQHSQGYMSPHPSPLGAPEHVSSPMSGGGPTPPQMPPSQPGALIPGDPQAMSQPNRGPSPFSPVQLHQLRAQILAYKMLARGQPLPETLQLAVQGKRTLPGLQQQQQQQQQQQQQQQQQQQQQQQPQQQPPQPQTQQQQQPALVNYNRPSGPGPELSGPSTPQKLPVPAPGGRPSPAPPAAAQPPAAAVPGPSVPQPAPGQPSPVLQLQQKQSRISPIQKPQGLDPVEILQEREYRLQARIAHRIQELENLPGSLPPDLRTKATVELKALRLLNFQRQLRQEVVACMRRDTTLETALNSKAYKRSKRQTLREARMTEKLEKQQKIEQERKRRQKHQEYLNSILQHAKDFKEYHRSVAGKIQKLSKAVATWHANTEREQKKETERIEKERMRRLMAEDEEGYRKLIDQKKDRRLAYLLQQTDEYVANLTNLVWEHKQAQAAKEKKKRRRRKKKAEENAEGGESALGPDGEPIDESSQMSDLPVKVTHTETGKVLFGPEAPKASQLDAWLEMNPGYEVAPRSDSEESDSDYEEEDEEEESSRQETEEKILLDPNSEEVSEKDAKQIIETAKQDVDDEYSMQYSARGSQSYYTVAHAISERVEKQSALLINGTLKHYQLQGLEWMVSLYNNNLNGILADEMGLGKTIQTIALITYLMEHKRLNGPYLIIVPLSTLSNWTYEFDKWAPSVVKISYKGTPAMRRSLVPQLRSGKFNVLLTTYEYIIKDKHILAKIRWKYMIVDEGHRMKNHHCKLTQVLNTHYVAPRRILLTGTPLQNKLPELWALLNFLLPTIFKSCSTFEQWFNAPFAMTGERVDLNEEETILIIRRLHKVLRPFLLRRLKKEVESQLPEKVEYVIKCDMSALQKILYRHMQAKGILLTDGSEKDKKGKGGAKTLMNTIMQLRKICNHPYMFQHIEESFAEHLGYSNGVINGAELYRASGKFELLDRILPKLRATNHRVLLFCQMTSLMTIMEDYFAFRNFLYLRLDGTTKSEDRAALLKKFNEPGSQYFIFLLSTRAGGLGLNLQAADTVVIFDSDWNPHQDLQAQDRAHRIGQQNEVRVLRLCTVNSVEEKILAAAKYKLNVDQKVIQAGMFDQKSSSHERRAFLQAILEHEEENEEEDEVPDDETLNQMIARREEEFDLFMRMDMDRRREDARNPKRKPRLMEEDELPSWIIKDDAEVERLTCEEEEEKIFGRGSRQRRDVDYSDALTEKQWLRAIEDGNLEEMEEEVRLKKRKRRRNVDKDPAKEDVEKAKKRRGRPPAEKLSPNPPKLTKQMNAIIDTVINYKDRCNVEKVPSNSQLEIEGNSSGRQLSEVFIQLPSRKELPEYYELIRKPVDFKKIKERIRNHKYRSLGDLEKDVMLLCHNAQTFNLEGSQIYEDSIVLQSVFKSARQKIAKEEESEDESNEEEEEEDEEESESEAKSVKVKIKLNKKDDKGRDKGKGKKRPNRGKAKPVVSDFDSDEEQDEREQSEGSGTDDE

- BRG1 Max % Inhibition ([1]; 30 nM BRG-1, 400 μM ATP): 85%
- IC50 ([1]; read-out: BRG1 ATPase: IC50, 30 nM BRG-1, 400 μM ATP): 0.5 to 1 µM
- BRM Max % Inhibition ([2]; 30 nM BRM, 400 μM ATP): 96%
- IC50 ([2]; read-out: BRM ATPase: IC50, 30 nM BRM, 400 μM ATP): 0.1 to 0.5 µM
Structure (SMILES): C[C@@]1(C#N)COCc2ccc(C(=O)NCc3cc4nc(-c5cccc6c5cnn6CCO)ccc4cn3)cc21

— patent US12441726B2, “Compounds and uses thereof” (Foghorn Therapeutics Inc., priority 2020, dated 2025)
